The values that follow are results of earlier work, collected in PMC9694544, “Conteltinib (CT-707) in patients with advanced ALK-positive non-small cell lung cancer: a multicenter, open-label, first-in-human phase 1 study” (BMC Medicine, 2022).

Read-outs that look alike come from different tables or passages of the source.

The subject of one series is ALK-positive NSCLC. As to conditions: cited from earlier work; for ORR / median PFS: at the dose ≥ RP2D.
In series [1] the test system is patients with ALK-positive NSCLC. As to conditions: cited from earlier work.
Setting [2] is: patients who received crizotinib previously.

As for `C[C@@H](Oc1cc(-c2cnn(C3CCNCC3)c2)cnc1N)c1c(Cl)ccc(F)c1Cl` [Crizotinib], the response rates result in the series with ALK-positive NSCLC (locally advanced or metastatic NSCLC harboring ALK rearrangement, across multiple studies) is “approximately 60%”. Also, in series [1], the “incidence of grade ≥ 3 TRAEs” value is 24%, the rash is given as 11% and the visual effects is given as 64%.
Turning to `CCc1cc2c(cc1N1CCC(N3CCOCC3)CC1)C(C)(C)c1[nH]c3cc(C#N)ccc3c1C2=O` [alectinib], the ORR in the series with ALK-positive NSCLC (ALK TKI-naïve patients) is given as 93.5%; with ALK-positive NSCLC (setting [2]), 56.7%. The entries for the “median PFS” value with ALK-positive NSCLC (ALK TKI-naïve patients) and in the series with ALK-positive NSCLC (setting [2]) were 34.8 months and 9.6 months, respectively. Moreover, in series [1], the “incidence of grade ≥ 3 TRAEs” value is listed as 26%.
